AlphaSeq binding of Ab-14 heavy chain variants to a spike HR2 peptide

The measurements come from Li et al. 2023 (doi:10.1038/s41467-023-39022-2) through the FLAb antibody collection.

All variants were tested on one target, the spike HR2 peptide PDVDLGDISGINAS (SARS-CoV-2).

Parent scFv Ab-14: VH joined to VL by the linker GGGGSGGGGSGGGGS. Changes lie in the heavy chain CDRs alone.
VH: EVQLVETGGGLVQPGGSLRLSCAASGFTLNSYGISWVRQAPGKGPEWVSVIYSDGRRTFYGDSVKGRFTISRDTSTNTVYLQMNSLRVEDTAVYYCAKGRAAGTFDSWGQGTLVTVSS
VL: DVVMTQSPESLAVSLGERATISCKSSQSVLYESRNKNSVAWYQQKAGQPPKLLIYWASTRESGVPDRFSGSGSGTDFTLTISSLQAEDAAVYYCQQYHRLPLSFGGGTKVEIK

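The starting antibody came from a phage panning campaign against this peptide. The variants were designed computationally from a first round of random CDR variants and then made and measured. Their group label is 14H_En_Gen (En: ensemble of fine-tuned language models; Gen: genetic algorithm). AlphaSeq pools MATa yeast showing the antibodies with MATalpha yeast showing the peptide. Mating (16 h, 30 °C) was followed by selection of diploids and sequencing of their barcodes. Scores were corrected for input abundance and mapped to Kd with protein pairs of known affinity run in the same pool. There are six technical replicates.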

Each variant is given by its three heavy chain CDRs, as the data file delimits them; those of the parent are GFTLNSYGIS, VIYSDGRRTFYGDSVK, GRAAGTFDS. The read-out is the apparent dissociation constant on a log10 scale (nM): the lower, the stronger. Replicates are averaged; those with no signal do not enter the mean. An entry "ND" has no value in the source: the pair was not observed among the diploids in that replicate. This suggests poor binding but is not conclusive. The parent sequence was in this pool as ten entries: three were never detected, three once, and four in most replicates, with averages from 0.34 to 2.37. The range of this assay differs from that of the first round, and the authors advise against merging the two. Nonspecific signal, from three strains lacking the peptide, appeared in 1% of pairings of all heavy chain designs, centred on 2.08 (5% of these signals below 0.84); values are not corrected for it. Also given: how often the same scFv was detected with the empty control strains, with their mean in brackets. The authors' rule: three or more of the six replicates give a measured affinity, fewer mean a poor binder.

CDR-H1,CDR-H2,CDR-H3,"replicates, log10 nM","mean, log10 nM",control signals
GFDLNEYGIS,VIYADGKRTAYADSVK,GGQAGTFDV,0.70 1.02 -0.21 0.19 0.90 0.49,0.51,0/18
GFDLNEYGIS,VIYADGMRTAYADNVK,GQVAGTFDI,-0.41 -0.23 -0.24 -0.77 -0.39 -0.36,-0.40,0/18
GFDLEDYGIS,VIYADGMRTAYADSVK,GEVAGTFDI,-0.57 -0.43 -0.58 -0.49 -0.65 -0.28,-0.50,0/18
GFNLDEYGIS,VIYADGQRTAYADSVK,GEVAGTFDV,-0.35 -0.30 -0.13 -0.25 -0.41 -0.53,-0.33,0/18
GFDLNEYGIS,VIYADGMRTAYSDNVK,GETAGTFDQ,-0.09 0.14 -0.62 -0.22 -0.64 -0.09,-0.25,0/18
GFDLNEYGIS,VIYADGQRTYYADSVK,GNNAGTFDV,-0.08 -0.45 -0.44 -0.45 -0.34 -0.32,-0.35,1/18 (2.45)
GFDLNEYGIS,VIYADGMRTAYSDSVK,GSNAGTFDI,0.34 0.16 1.05 0.64 1.00 1.84,0.84,0/18
GFDLNEYGIS,VIYADGMRTAYADDVK,GETAGTFDT,-0.48 -0.60 -0.44 -0.65 -0.65 -0.29,-0.52,0/18
GFDLDEYGIS,VIYADGVRTAYTDSVK,GQNAGTFDV,-0.53 -0.59 -0.92 -1.20 -0.62 -0.73,-0.76,1/18 (1.47)
GFDLNEYGIS,VIYADGVRTAYSDDVK,GEVAGTFDV,-0.15 -0.57 -0.43 -0.81 -0.70 -0.01,-0.45,0/18
GFDLNEYGIS,VIYADGMRTAYADSVK,GNEAGTFDQ,ND ND ND ND ND ND,ND,0/18
GFNLDEYGIS,VIYADGMRTAYADSVK,GNVAGTFDT,-0.35 -0.60 -0.53 -0.34 -0.48 -0.19,-0.42,0/18
GFDLNEYGIS,VIYADGIRTAYADSVK,GNVAGTFDV,-0.18 -0.26 -0.32 -0.13 -0.09 -0.21,-0.20,0/18
GFDLNEYGIS,VIYADGLRTAYSDDVK,GENAGTFDV,-0.47 -0.31 -0.25 -0.89 -0.02 -0.08,-0.33,0/18
GFDLNEYGIS,VIYADGMRTYYADSVK,GSNAGTFDM,0.31 -0.73 -0.28 -0.20 0.25 -0.33,-0.16,0/18
GFNLDEYGIS,VIYADGMRTAYADSVK,GETAGTFDI,-0.05 0.36 -0.54 -0.17 -0.01 -0.12,-0.09,0/18
GFDLNEYGIS,VIYADGVRTAYSDSVK,GNNAGTFDQ,-0.25 -0.07 0.09 -0.40 -0.17 0.36,-0.07,0/18
GFDLNEYGIS,VIYADGKRTFYADSVK,GENAGTFDQ,-0.37 -0.52 0.29 -0.66 0.04 -0.27,-0.25,0/18
GFDLDEYGIS,VIYADGMRTVYADSVK,GQNAGTFDI,-0.51 -0.63 -0.64 -0.80 -0.93 -0.72,-0.71,0/18
GFDLNEYGIS,VIYADGVRTAYSDSVK,GNEAGTFDM,-0.93 -0.96 -0.77 -0.22 -1.24 -0.79,-0.82,0/18
GFDLEDYGIS,VIYADGMRTAYSDSVK,GNEAGTFDV,-0.22 0.13 -0.26 -0.45 -0.08 0.05,-0.14,0/18
GFDLNEYGIS,VIYADGMRTAYSDSVK,GHNAGTFDI,-0.47 -0.47 -0.52 -0.76 -0.67 -0.45,-0.56,1/18 (1.47)
GFDLDEYGIS,VIYADGMRTAYSDSVK,GQVAGTFDT,-0.09 -0.05 -0.55 -0.69 -0.66 -0.25,-0.38,1/18 (3.11)
GFDLNEYGIS,VIYADGMRKAYSDSVK,GNQAGTFDV,-0.08 -0.48 -0.50 -0.60 -0.54 -0.57,-0.46,0/18
GFDLNEYGIS,VIYADGMRTSYVDSVK,GNVAGTFDV,0.00 0.25 -0.66 -0.52 -0.57 -0.46,-0.33,1/18 (3.19)
GFDLNEYGIS,VIYADGRRTAYTDSVK,GNVAGTFDL,-0.27 0.05 -0.14 -0.42 -0.29 0.01,-0.18,2/18 (1.67)
GFDLDEYGIS,VIYADGMRTAYADDVK,GNVAGTFDQ,ND ND -0.18 -0.04 ND ND,-0.11,0/18
GFDLDEYGIS,VIYADGMRTAYSDKVK,GNVAGTFDV,0.38 0.38 -0.23 -0.15 0.34 0.26,0.16,0/18
GFDLDEYGIS,VIYADGRRTAYADSVK,GNQAGTFDV,-0.30 -0.20 -0.48 -0.54 -0.42 -0.19,-0.35,1/18 (2.12)
GFDLDEYGIS,VIYADGRRTAYSDSVK,GNVAGTFDV,0.31 0.40 0.11 -0.15 0.11 0.36,0.19,0/18
GFDLNEYGIS,VIYADGQRTAYADSVK,GGNAGTFDI,-0.31 -0.49 -0.67 -0.56 -0.27 -0.26,-0.43,1/18 (0.70)
GFDLDEYGIS,VIYADGVRTAYTDSVK,GNVAGTFDT,-0.80 -0.77 -0.91 -0.39 -0.92 -0.38,-0.70,0/18
GFDLNEYGIS,VIYADGKRTAYSDSVK,GEVAGTFDI,-0.63 -0.53 -0.74 -0.70 -0.43 -0.43,-0.58,1/18 (1.59)
GFDLNEYGIS,VIYADGSRTAYSDSVK,GNNAGTFDI,-0.18 -0.06 -0.33 -0.31 -0.10 0.04,-0.16,1/18 (3.97)
GFDLNEYGIS,VIYADGVRTAYSDNVK,GNVAGTFDL,-0.70 -0.31 -0.76 -0.62 -0.52 -0.46,-0.56,0/18
GFDLNEYGIS,VIYADGQRTAYADNVK,GETAGTFDV,-0.14 1.67 0.07 0.74 0.76 0.26,0.56,0/18
GFDLNEYGIS,VIYADGRRTAYADDVK,GENAGTFDQ,0.02 -0.14 -0.60 -0.32 -0.38 0.35,-0.18,0/18
GFDLNEYGIS,VIYADGRRTAYTDSVK,GNQAGTFDV,0.46 0.41 0.06 0.42 0.25 0.42,0.34,0/18
GFDLNEYGIS,VIYADGMRTAYADKVK,GETAGTFDI,-0.28 -0.32 -0.18 -0.02 -0.55 -0.20,-0.26,0/18

Repeated from above, the 3 best binders with a signal in all replicates:

{"CDR-H1": "GFDLNEYGIS", "CDR-H2": "VIYADGVRTAYSDSVK", "CDR-H3": "GNEAGTFDM", "replicates, log10 nM": "-0.93 -0.96 -0.77 -0.22 -1.24 -0.79", "mean, log10 nM": "-0.82", "control signals": "0/18"}
{"CDR-H1": "GFDLDEYGIS", "CDR-H2": "VIYADGVRTAYTDSVK", "CDR-H3": "GQNAGTFDV", "replicates, log10 nM": "-0.53 -0.59 -0.92 -1.20 -0.62 -0.73", "mean, log10 nM": "-0.76", "control signals": "1/18 (1.47)"}
{"CDR-H1": "GFDLDEYGIS", "CDR-H2": "VIYADGMRTVYADSVK", "CDR-H3": "GQNAGTFDI", "replicates, log10 nM": "-0.51 -0.63 -0.64 -0.80 -0.93 -0.72", "mean, log10 nM": "-0.71", "control signals": "0/18"}